Results: PubChem BioAssay (Tox21)
Values joined by “and” are separate entries in the source; they are usually repeats but may differ in a detail not shown here. Equal values may be shown once. The list shows a part of the results, in another mix than the full data. Records with an inconclusive call do not appear. Active and inactive are the calls of the source. Unless noted, calls follow the shape of the dose curve; as a rule, active = well fitted curve in the direction sought with a large enough effect in the repeat runs; inconclusive = weak or mixed curves; inactive = no such curve, though single readings can be large; an effect the other way counts as inactive or inconclusive.

Chains of the proteins cited; added tags and fusions are not shown. Lines headed by an entry give the natural chain unless they say otherwise; changes in a name come on top.
UniProt P08659, whole entry, looked up: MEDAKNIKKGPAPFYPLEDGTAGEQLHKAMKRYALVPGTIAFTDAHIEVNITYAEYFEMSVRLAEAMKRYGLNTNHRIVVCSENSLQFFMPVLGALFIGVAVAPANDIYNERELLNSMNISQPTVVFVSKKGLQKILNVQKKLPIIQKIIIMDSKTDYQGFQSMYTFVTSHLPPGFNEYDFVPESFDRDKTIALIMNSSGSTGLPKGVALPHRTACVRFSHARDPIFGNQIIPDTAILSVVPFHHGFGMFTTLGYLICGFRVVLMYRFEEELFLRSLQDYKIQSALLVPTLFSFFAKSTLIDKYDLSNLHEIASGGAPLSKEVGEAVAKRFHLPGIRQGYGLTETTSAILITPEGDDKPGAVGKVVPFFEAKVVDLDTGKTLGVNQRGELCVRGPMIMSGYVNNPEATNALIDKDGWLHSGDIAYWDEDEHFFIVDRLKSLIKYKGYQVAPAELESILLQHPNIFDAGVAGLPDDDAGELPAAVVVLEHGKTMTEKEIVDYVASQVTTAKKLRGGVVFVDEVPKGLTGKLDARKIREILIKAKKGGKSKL
UniProt Q14994: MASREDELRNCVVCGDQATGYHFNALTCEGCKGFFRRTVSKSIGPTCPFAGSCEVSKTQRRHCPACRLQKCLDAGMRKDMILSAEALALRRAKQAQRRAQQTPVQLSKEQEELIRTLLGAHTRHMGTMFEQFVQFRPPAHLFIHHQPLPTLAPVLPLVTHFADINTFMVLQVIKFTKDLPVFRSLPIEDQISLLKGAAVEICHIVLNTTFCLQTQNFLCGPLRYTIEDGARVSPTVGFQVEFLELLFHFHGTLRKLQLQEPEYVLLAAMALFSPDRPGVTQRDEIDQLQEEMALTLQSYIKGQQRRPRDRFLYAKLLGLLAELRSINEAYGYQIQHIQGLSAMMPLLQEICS
UniProt P16473, whole entry, looked up: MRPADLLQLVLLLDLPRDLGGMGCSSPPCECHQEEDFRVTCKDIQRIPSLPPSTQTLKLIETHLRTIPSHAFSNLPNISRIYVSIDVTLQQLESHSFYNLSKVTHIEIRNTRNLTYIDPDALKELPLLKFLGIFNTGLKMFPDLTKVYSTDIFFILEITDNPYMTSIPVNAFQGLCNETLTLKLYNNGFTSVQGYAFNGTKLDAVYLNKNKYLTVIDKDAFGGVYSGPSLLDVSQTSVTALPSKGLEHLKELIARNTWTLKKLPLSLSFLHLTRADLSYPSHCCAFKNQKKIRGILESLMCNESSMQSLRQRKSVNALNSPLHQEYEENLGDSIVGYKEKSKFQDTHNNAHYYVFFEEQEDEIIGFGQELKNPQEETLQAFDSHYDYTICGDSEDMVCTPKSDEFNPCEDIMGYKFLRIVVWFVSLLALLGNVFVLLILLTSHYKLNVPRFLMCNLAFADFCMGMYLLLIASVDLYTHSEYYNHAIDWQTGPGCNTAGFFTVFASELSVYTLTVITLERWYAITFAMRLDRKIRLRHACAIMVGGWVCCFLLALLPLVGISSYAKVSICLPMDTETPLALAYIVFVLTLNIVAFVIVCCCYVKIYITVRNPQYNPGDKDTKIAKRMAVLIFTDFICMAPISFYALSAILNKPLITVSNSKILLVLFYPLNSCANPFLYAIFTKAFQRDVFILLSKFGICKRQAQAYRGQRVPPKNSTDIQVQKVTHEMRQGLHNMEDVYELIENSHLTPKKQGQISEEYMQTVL
UniProt P19793: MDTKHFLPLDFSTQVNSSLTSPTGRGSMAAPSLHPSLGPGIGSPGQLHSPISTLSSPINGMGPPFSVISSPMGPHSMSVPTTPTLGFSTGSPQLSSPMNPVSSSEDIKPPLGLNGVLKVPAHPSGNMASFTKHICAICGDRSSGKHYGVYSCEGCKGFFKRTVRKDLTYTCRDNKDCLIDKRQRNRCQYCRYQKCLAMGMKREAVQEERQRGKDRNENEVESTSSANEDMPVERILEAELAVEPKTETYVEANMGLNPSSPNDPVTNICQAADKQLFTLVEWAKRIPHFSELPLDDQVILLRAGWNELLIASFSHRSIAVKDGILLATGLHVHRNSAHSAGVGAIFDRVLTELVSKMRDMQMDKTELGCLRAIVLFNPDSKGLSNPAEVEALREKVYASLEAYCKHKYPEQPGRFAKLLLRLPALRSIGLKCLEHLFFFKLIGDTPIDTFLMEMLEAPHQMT

What was measured:
[1] = target: Nuclear receptor ROR-gamma (Homo sapiens) (UniProt P51449); assay: qHTS assay to identify small molecule antagonists of the retinoid-related orphan receptor gamma (ROR-gamma) signaling pathway (AID 1159521;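 also: CHO cells with doxycycline inducible ROR-gamma driving an RORE luciferase reporter; top concentration of the series differs between compounds; % is scaled to controls: 0 for no effect and ±100 for the full control effect; nearly all actives have a fitted effect of over 50% in size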); settings: Tet-on RORgamma CHO cells, RORE-luciferase, 16 h
[2] = qHTS assay to identify small molecule agonists of the AP-1 signaling pathway - cell viability counter screen (AID 1159525; calls by dose curve; also: nearly all actives have a fitted effect of over 55% in size); settings: ME-180 AP-1-bla cells viability, ATP luminescence, 5 h
How it was run: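 ME-180 AP-1-bla, 2500 cells/well, Opti-MEM + 0.5% dialyzed FBS; overnight 37 °C; cpd 15-pt titration, 5 h 37 °C; CellTiter-Glo 30 min RT; luminescence read; normalised to TOAB and DMSO controls.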

[3] = qHTS assay to identify small molecule agonists of the AP-1 signaling pathway (AID 1159526; calls by dose curve; also: % is scaled to controls: 0 for no effect and ±100 for the full control effect); settings: ME-180 (cervical carcinoma) AP-1-bla reporter, beta-lactamase FRET ratio, 5 h
[4] = qHTS assay to identify small molecule antagonists of the retinoic acid receptor (RAR) signaling pathway (AID 1159552; also: % is scaled to controls: 0 for no effect and ±100 for the full control effect; nearly all actives have a fitted effect of over 50% in size); settings: C3RL4 RARE luciferase reporter, retinol-stimulated, 6 h
How it was run: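 Readout: luciferase luminescence, 30 min post-reagent at RT. Setup: C3RL4 RARE reporter cells, compounds plus retinol 1 uM final, 6 hr incubation at 37 C and 5% CO2.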

[5] = qHTS assay to identify small molecule antagonists of the estrogen related receptor (ERR) signaling pathway from Tox21 library - cell viability counter screen (AID 1224834); settings: ERR reporter cells viability, CellTiter-Fluor, 17.5 h; series mostly up to 92.4 µM; also: nearly all actives have a fitted effect of over 30% in size; also: potency is read from the fitted curve at half-maximal effect
How it was run: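 Fluorescence from CellTiter-Fluor gives the viability read-out, taken 30 min after reagent addition. Before that, ERR cells seeded 6 h earlier were incubated with compounds for 17.5 h at 37 C.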

[6] = target: Luciferin 4-monooxygenase (Photinus pyralis) (UniProt P08659); assay: qHTS assay to identify small molecule inhibitors of firefly luciferase (AID 1224835); also: % is scaled to controls: 0 for no effect and ±100 for the full control effect; nearly all actives have a fitted effect of over 25% in size; settings: purified P. pyralis luciferase, luminescence inhibition; series mostly up to 115 µM
How it was run: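 Quantitative HTS format; KM concentrations of both substrates. Purified P. pyralis FLuc activity quantified from luminescence images.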

[7] = qHTS assay to identify small molecule agonists of the constitutive androstane receptor (CAR) signaling pathway - cell viability counter screen (AID 1224836); settings: HepG2-CYP2B6-hCAR viability, CellTiter-Fluor, 23 h, PK11195 added to every well; series mostly up to 92.4 µM; also: % is scaled to controls: 0 for no effect and ±100 for the full control effect; nearly all actives have a fitted effect of over 45% in size
How it was run: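 Compound titrations (15 concentrations) went onto HepG2-CYP2B6-hCAR cells 4 h after seeding, alongside PK11195 at a final 0.75 uM; a 23 h, 37 C/5% CO2 incubation preceded CellTiter-Fluor viability measurement.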

[8] = target: Nuclear receptor subfamily 1 group I member 3 (Homo sapiens) (UniProt Q14994); assay: qHTS assay to identify small molecule antagonists of the constitutive androstane receptor (CAR) signaling pathway (AID 1224838); settings: HepG2-CYP2B6-hCAR luciferase, CITCO-stimulated, 24 h; series mostly up to 92.4 µM;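 also: HepG2 cells stably expressing hCAR with CYP2B6 luciferase reporter stimulated by CITCO; % is scaled to controls: 0 for no effect and ±100 for the full control effect; nearly all actives have a fitted effect of over 40% in size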
[9] = target: Nuclear receptor subfamily 1 group I member 3 (Homo sapiens) (UniProt Q14994); assay: qHTS assay to identify small molecule agonists of the constitutive androstane receptor (CAR) signaling pathway (AID 1224839); settings: HepG2 hCAR CYP2B6-luciferase, agonist mode, 24 h;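 also: HepG2 cells stably carrying human CAR and a CYP2B6 luciferase reporter; % is scaled to controls: 0 for no effect and ±100 for the full control effect; nearly all actives have a fitted effect of over 15% in size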
[10] = qHTS assay to identify small molecule antagonists of the estrogen related receptor signaling pathway with the pleiotropic PPARgamma coactivator (PGC) from Tox21 10K library - cell viability counter screen (AID 1224840; active = well fitted cell-killing curve with a large enough effect in the repeat runs, not every such curve was filed as active; also: % is scaled to controls: 0 for no effect and ±100 for the full control effect; nearly all actives have a fitted effect of over 40% in size); settings: PGC/ERR reporter cells viability, CellTiter-Fluor, 17.5 h
How it was run: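 PGC/ERR cells, 2,000/well; 6 h pre-incubation 37 C/5% CO2; cpd in DMSO via pin tool; 17.5 h 37 C; CellTiter-Fluor, 30 min; fluorescence.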

[11] = target: Thyrotropin receptor (Homo sapiens) (UniProt P16473); assay: qHTS assay to identify small molecule agonists of the thyroid stimulating hormone receptor (TSHR) signaling pathway (AID 1224843; calls by dose curve; also: nearly all actives have a fitted effect of over 45% in size; also: potency is read from the fitted curve at half-maximal effect); settings: TSHR-HEK293 cells, cAMP HTRF, agonist mode, 30 min; series mostly up to 92.4 µM
[12] = target: Retinoic acid receptor RXR-alpha (Homo sapiens) (UniProt P19793); assay: qHTS assay to identify small molecule agonists of the RXR signaling pathway (AID 1159527; calls by dose curve; also: % is scaled to controls: 0 for no effect and ±100 for the full control effect; nearly all actives have a fitted effect of over 35% in size); settings: HEK293T RXRa-UAS-bla, beta-lactamase ratio, 16 h
[13] = qHTS assay to identify small molecule antagonists of the constitutive androstane receptor (CAR) signaling pathway - cell viability counter screen (AID 1224837); settings: HepG2-CYP2B6-hCAR viability, CellTiter-Fluor, 23 h, co-treated with 50 nM CITCO; series mostly up to 92.4 µM; also: % is scaled to controls: 0 for no effect and ±100 for the full control effect; nearly all actives have a fitted effect of over 45% in size
How it was run: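 HepG2-CYP2B6-hCAR cells, 2500/well, 4 hr pre-incubation; compound titration, 15 conc.; CITCO 50 nM final; 23 hr, 37 C/5% CO2; CellTiter-Fluor, fluorescence intensity.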

[14] = qHTS assay to identify small molecule agonists of the estrogen related receptor signaling pathway with the pleiotropic PPARgamma coactivator (PGC) from Tox21 10K library (AID 1224842); settings: PGC/ERR reporter cell line, luciferase ONE-Glo, 18 h; at 92.4 µM (top of the series) unless noted; also: % is scaled to controls: 0 for no effect and ±100 for the full control effect; nearly all actives have a fitted effect of over 15% in size
How it was run: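 PGC/ERR reporter cells (NTP line) were seeded 2,000 per well, rested 6 h at 37 C/5% CO2, then pin-dosed with compounds in DMSO for 18 h at 37 C; luciferase read by One-Glo luminescence after 30 min at room temperature.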

[15] = qHTS assay to identify small molecule antagonists of the estrogen related receptor signaling pathway with the pleiotropic PPARgamma coactivator (PGC) from Tox21 10K library (AID 1224841; call rule not given here; also: % is scaled to controls: 0 for no effect and ±100 for the full control effect; actives are mostly falling curves and most rising ones were filed inactive; nearly all actives have a fitted effect of over 50% in size); settings: PGC/ERR reporter cell line, ONE-Glo luciferase, 18 h; series mostly up to 92.4 µM
[16] = qHTS assay to identify small molecule antagonists of the estrogen related receptor (ERR) signaling pathway - cell viability counter screen (AID 1224818); settings: ERR reporter cell line viability counter screen; series mostly up to 46.1 µM;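 also: viability measured after 17.5 h of compound exposure; % is scaled to controls: 0 for no effect and ±100 for the full control effect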
How it was run: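 Multiplexed counter screen to separate cytotoxic compounds from true ERR modulators. ERR cells received DMSO-dissolved compounds after a 6 h pre-incubation, were exposed 17.5 h at 37 C, then assayed with CellTiter-Fluor fluorescence.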

[17] = qHTS assay to identify small molecule antagonists of the estrogen related receptor (ERR) signaling pathway (AID 1224819;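 also: luminescence from an ERR-driven luciferase reporter measured with One-Glo reagent; % is scaled to controls: 0 for no effect and ±100 for the full control effect; nearly all actives have a fitted effect of over 50% in size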); settings: ERR reporter cell line, luciferase inhibition; series mostly up to 46.1 µM
How it was run: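 Seed ERR cells 2,000/well; rest 6 h at 37 C/5% CO2; pin compounds in DMSO; incubate 18 h at 37 C; add One-Glo; wait 30 min at room temperature; measure luminescence.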

[18] = qHTS assay to identify small molecule agonists of the estrogen related receptor (ERR) signaling pathway (AID 1224820); settings: ERR reporter cell line, luciferase agonist mode; at 46.1 µM (top of the series) unless noted; also: % is scaled to controls: 0 for no effect and ±100 for the full control effect
How it was run: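 Cells: ERR line from NTP, 2,000/well. Pre-incubation 6 h, 37 C/5% CO2. Compound (DMSO) pin transfer, 18 h 37 C. One-Glo, 30 min RT, luminescence.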

[19] = qHTS assay to identify small molecule antagonists of the estrogen related receptor signaling pathway with the pleiotropic PPARgamma coactivator (PGC) cell viability counter screen (AID 1224822; also: % is scaled to controls: 0 for no effect and ±100 for the full control effect); settings: ERR/PGC reporter cell line viability counter screen; series mostly up to 46.1 µM
How it was run: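 Cells: PGC/ERR, 2,000/well, 1536-well format. Pre-incubation 6 h, 37 C/5% CO2. Compound exposure 17.5 h, 37 C. Detection: CellTiter-Fluor, 30 min, fluorescence.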

[20] = at 76.8 µM (top of the series) unless noted
[21] = at 92.4 µM (top of the series) unless noted

O=[P+](Oc1ccccc1)Oc1ccccc1
inactive: activity change, negative = inhibition ([1]; at 92.4 µM (top of the series)) -7.03% | viability change, negative = cytotoxic [2, 20] 2.72% | activation [3, 20] 6.32% | activity, negative = inhibition ([4]; at 92.4 µM (top of the series)) 17.1% | Potency [5] | Potency [6] | Potency [7] | Potency [8] | activation [9, 21] 0.13% | viability change, negative = cytotoxic [10, 21] 0.339% | Potency [11]

CCCCC(CC)CO[P+](=O)OCC(CC)CCCC (centres undefined)
inactive: activity change, negative = inhibition ([1]; at 92.4 µM (top of the series)) -4.36% | viability change, negative = cytotoxic [2, 20] -0.259% | activation [3, 20] -3.45% | activation ([12]; at 76.8 µM (top of the series)) -7.85% | activity, negative = inhibition ([4]; at 92.4 µM (top of the series)) 3.8% | Potency [5] | Potency [6] | Potency [7] | Potency [13] | Potency [8] | activation [9, 21] -2.05% | viability change, negative = cytotoxic [10, 21] 1.33% | Potency [11]

O=[N+]([O-])c1ccc([N+](=O)[O-])cc1
active: Potency [5] 27.3 µM
inactive: viability change, negative = cytotoxic [2, 20] -3.23% | Potency [6]

CCOC(=O)Cl
inactive: activity change, negative = inhibition ([1]; at 92.4 µM (top of the series)) -9.42% | viability change, negative = cytotoxic [2, 20] -4.27% | activation [3, 20] 0.601% | activation ([12]; at 76.8 µM (top of the series)) 3.74% | activity, negative = inhibition ([4]; at 92.4 µM (top of the series)) -3.74% | Potency [5] | Potency [6] | Potency [7] | Potency [13] | Potency [8] | activation [9, 21] -0.502% | viability change, negative = cytotoxic [10, 21] 3.16% | Potency [11]

CC(C)OP(=S)(OC(C)C)SCCNS(=O)(=O)c1ccccc1
inactive: viability change, negative = cytotoxic [2, 20] -5.82% | Potency [7] | Potency [13] | Potency [8] | activation [14] -22.2%

NC(=O)Nc1ccc([As](=O)(O)O)cc1
inactive: activity change, negative = inhibition ([1]; at 42.5 µM (top of the series)) 11.2% | activity change, negative = inhibition ([1]; at 92.4 µM (top of the series)) -16% | viability change, negative = cytotoxic ([2]; at 35.3 µM (top of the series)) -25.2% | viability change, negative = cytotoxic ([2]; at 76.8 µM (top of the series)) 2.46% | activation ([3]; at 35.3 µM (top of the series)) -1.42% | activation ([3]; at 76.8 µM (top of the series)) -7.67% | activation ([12]; at 35.3 µM (top of the series)) 10.4% | activation ([12]; at 76.8 µM (top of the series)) 1.72% | activity, negative = inhibition ([4]; at 42.5 µM (top of the series)) 0.99% | activity, negative = inhibition ([4]; at 92.4 µM (top of the series)) -0.681% | Potency [5] | Potency [7] | Potency [13] | Potency [8] | activation ([9]; at 42.5 µM (top of the series)) -0.403% | activation ([9]; at 92.4 µM (top of the series)) -0.0597% | viability change, negative = cytotoxic ([10]; at 42.5 µM (top of the series)) -0.613% | viability change, negative = cytotoxic ([10]; at 92.4 µM (top of the series)) -1.96%

CCOP(=S)(CC)Sc1ccccc1 (centres undefined)
inactive: activity change, negative = inhibition ([1]; at 92.4 µM (top of the series)) 4.72% | viability change, negative = cytotoxic [2, 20] 3.67% | activation [3, 20] 8.92% | activation ([12]; at 76.8 µM (top of the series)) 0.625% | activity, negative = inhibition ([4]; at 92.4 µM (top of the series)) -17% | Potency [5] | Potency [6] | Potency [7] | Potency [13] | Potency [8] | viability change, negative = cytotoxic [10, 21] -2.42% | Potency [15] | activation [14] 0.182% | Potency [11]

CN(C(=O)Cc1ccc(Cl)c(Cl)c1)[C@@H]1CCCC[C@@H]1N1CCCC1
inactive: Potency [16] | Potency [17] | activation [18] 4.07% | Potency [19]

O=C1C2CC=CCC2C(=O)N1SC(Cl)(Cl)C(Cl)Cl (centres undefined)
active: Potency [11] 7.7 µM
inactive: activation [9, 21] -16.5% and -25.5% | activation [14] -27.6% and -40%
